Biological target: T1, Ribonuclease pancreatic (Bos taurus, UniProt P61823)
T1 sequence (P61823 whole entry): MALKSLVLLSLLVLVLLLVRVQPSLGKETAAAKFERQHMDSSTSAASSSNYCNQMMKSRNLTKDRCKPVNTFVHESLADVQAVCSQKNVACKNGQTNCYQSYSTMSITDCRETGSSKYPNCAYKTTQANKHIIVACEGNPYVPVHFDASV
Assay: Inhibition of bovine pancreatic RNase A by spectrophotometric method
How it was run: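 Bovine pancreatic RNase A; spectrophotometric initial-velocity assay with 2′,3′-cCMP substrate in 0.1 M Mes-NaOH pH 6.0, 0.1 M NaCl. Ki taken from Dixon plots (1/V vs [I]) by the competitive equation; at least three repeats per set.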

Ki: 396 µM
Structure (SMILES): Cc1cn([C@H]2C[C@H](O)[C@@H](CN3CCCCC3)O2)c(=O)[nH]c1=O
